{"sequences": {"note": "The chains behind the UniProt entries cited, without tags or fusion partners. Residues count along the entry.", "UniProt P05556, 21-798 limits assumed": "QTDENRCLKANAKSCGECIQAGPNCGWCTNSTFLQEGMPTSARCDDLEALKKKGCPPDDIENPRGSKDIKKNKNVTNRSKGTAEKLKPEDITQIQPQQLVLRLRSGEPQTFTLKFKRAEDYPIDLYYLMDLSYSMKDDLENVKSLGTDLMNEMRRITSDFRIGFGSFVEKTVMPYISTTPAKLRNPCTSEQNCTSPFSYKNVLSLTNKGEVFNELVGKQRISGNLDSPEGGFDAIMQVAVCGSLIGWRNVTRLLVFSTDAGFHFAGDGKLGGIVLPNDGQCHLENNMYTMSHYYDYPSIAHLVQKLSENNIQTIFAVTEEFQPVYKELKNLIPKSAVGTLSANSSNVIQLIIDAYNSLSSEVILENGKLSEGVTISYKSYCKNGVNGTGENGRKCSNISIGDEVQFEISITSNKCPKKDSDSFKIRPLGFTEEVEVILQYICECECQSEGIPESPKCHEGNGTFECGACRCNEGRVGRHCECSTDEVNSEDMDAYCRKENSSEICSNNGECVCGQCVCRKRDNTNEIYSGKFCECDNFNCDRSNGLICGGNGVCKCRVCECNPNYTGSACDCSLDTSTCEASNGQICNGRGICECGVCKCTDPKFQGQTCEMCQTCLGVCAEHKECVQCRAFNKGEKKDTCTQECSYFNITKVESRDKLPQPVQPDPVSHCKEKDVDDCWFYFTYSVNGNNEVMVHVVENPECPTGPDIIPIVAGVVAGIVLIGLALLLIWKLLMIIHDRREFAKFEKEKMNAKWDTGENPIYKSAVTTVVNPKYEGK", "UniProt P13612, 34-1032 limits assumed": "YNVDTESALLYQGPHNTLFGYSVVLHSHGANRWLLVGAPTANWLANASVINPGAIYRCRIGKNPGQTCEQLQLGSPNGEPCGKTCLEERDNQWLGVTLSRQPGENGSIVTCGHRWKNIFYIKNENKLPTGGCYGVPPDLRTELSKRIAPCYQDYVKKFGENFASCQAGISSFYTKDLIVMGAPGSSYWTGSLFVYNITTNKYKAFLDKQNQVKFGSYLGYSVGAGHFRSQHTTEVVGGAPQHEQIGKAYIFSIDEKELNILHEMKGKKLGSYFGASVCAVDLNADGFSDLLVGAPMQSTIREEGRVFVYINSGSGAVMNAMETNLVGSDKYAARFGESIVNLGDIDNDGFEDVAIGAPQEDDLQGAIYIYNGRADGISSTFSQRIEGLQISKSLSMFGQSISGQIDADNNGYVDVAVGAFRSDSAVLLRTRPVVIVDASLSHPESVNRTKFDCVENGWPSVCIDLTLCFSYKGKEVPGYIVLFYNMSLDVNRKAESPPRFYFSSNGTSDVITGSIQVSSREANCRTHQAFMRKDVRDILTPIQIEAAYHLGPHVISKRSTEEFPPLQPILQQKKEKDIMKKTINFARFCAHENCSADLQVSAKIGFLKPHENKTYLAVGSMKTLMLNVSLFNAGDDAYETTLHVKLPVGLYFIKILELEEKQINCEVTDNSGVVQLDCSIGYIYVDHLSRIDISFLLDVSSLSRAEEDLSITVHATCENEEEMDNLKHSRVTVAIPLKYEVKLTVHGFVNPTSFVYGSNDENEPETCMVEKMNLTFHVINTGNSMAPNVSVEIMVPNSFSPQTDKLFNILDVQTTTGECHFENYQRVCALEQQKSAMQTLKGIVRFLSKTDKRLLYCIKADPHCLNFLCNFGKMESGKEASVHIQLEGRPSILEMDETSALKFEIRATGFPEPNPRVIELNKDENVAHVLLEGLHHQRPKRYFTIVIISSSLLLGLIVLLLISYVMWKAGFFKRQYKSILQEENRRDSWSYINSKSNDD"}, "source": "patent US7001921B1", "about": "“Cell adhesion inhibitors” (Biogen Idec MA Inc., priority 1995, dated 2006)", "target": "VLA4 (Homo sapiens, UniProt P05556+P13612)", "test": "Inhibition of VLA4-dependent adhesion to BSA-CS1 (labelled Ramos cells)", "settings": "binding of BCECF-AM labelled Ramos cells to CS1 peptide-coated wells, 2 mM MnCl2, 30 minutes at room temperature; IC50 range", "source_text": "For example, the cell adhesion inhibitory activity of these compounds may be measured by determining the concentration of inhibitor required to block the binding of VLA-4-expressing cells to fibronectin- or CS1-coated plates. In this assay microtiter wells are coated with either fibronectin (containing the CS-1 sequence) or CS-1. If CS-1 is used, it must be conjugated to a carrier protein, such as bovine serum albumin, in order to bind to the wells. Once the wells are coated, varying concentrations of the test compound are then added together with appropriately labelled, VLA-4-expressing cells. Alternatively, the test compound may be added first and allowed to incubate with the coated wells prior to the addition of the cells. The cells are allowed to incubate in the wells for at least 30 minutes. Following incubation, the wells are emptied and washed. Inhibition of binding is measured by quantitating the fluorescence or radioactivity bound to the plate for each of the various concentrations of test compound, as well as for controls containing no test compound.\nVLA-4-expressing cells that may be utilized in this assay include Ramos cells, Jurkat cells, A375 melanoma cells, as well as human peripheral blood lymophocytes (PBLs). […]\nWe dissolved BSA-SMCC (Pierce Chemical, Rockford, Ill.; Catalog # 77115) in H2O at a concentration of 10 mg/mL. […] Samples were analyzed for cross-linking by SDS-PAGE. […]"}
{"smiles": "CC(C)CC(NC(=O)C(c1ccccc1)c1ccccc1)C(=O)NC(CC(=O)O)c1ccccc1", "note": "(stereo not shown)", "values": [{"measurement": "IC50", "value": "> 10", "unit": "µM"}]}
